Test results taken from PMC7615550, “Structural mechanism of outer kinetochore Dam1:Ndc80 complex assembly on microtubules” (Science (New York, N.Y.), 2023).

Molecular target: T1, Ndc80 subunit of the Ndc80 complex (S. cerevisiae, UniProt P40460 1-691)
T1 construct: Ndc80, S. cerevisiae, as a subunit of the reconstituted Ndc80 complex; Stood in the assay inside the whole Ndc80c; also called Ndc80^CH; Ndc80^CC; source: purified as part of Ndc80c
T1 sequence: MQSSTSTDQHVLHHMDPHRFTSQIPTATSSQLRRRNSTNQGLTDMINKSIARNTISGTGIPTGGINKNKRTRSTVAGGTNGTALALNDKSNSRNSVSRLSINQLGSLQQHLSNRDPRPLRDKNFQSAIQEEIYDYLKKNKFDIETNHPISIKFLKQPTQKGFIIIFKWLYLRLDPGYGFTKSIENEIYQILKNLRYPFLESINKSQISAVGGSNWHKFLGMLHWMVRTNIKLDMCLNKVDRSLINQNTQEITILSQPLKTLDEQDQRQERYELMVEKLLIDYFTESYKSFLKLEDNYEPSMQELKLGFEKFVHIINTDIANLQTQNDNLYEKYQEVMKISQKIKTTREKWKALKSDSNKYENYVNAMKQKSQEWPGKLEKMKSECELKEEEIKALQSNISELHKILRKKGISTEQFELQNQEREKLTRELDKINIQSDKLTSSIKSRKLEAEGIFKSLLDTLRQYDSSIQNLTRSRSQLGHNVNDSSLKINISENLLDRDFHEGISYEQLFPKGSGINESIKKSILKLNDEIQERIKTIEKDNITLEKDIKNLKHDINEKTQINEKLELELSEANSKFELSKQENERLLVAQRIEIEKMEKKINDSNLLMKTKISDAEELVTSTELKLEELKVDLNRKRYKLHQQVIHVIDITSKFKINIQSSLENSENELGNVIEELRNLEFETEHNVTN
Assay: cryo-EM structure; outer kinetochore Dam1c:Ndc80c:microtubule complexes assembled on cryo-EM grids by step-wise addition of taxol-stabilized microtubules, Ndc80c, and Dam1c
Details: both partners purified

binding result: binds
B1: Nuf2 subunit of the Ndc80 complex (natural protein, S. cerevisiae)
chain: MSRNQDVFPILDLQELVICLQSCDFALATQENISRPTSDYMVTLYKQIIENFMGISVESLLNSSNQETGDGHLQEENENIYLDTLNVLVLNKICFKFFENIGVQDFNMTDLYKPEAQRTQRLLSAVVNYARFREERMFDCNSFILQMESLLGQLRSKFDDYNLIQQQLKQYEDVDGDNIPDEQELQKLEEQNKELEIQLKKLTKIQETLSIDYNDYKISKQSIFKDLEALSFQIVELESNRDKLIKISNTDMEELSEGIKELNDLLIQRKKTLDDLTAQQKNLQDTVTTFETIISELYDVLRIISSEVQESNRTETELVGLKQNLINNKLKLMNVLETGIMYKLEILQEQLDLQLKNLEKLSQDTKEESRLNDTKLMDLQIKYENEIKPKIDKTDIFIQEELISGKINKLNDEIKQLQKDFEVEVKEIEIEYSLLSGHINKYMNEMLEYMQ
notes: Nuf2, S. cerevisiae, as a subunit of the reconstituted Ndc80 complex; Stood in the assay inside the whole Ndc80c; also called Nuf2^CH; Nuf2^CC; source: purified as part of Ndc80c
